Assays:
Assay type in all cases: nucleic-acid assay
[1] = system: Nucleic Acid; test: Thermal stabilization of Salmon testes duplex DNA assessed as change in transition temperature at 15 uM after 4 hrs by temperature-dependent spectrophotometry in presence of 150 mM K+ ions; conditions: Salmonidae
How it was run: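 Salmon testes duplex DNA at 30 μM base pair with ligand at 15 μM. Buffer 10 mM potassium phosphate pH 7.5 with 132 mM KCl (150 mM K+). DNA preheated at 90 °C for 5 min and cooled slowly over 4 hr. Temperature-dependent absorbance recorded in 1 cm quartz cells.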

[2] = system: Nucleic Acid; test: Thermal stabilization of r[AG4CG2CUG2UCG2AGUG2C] sequence of quadruplex RNA assessed as change in transition temperature at 20 uM after 4 hrs by temperature-dependent spectrophotometry in presence of 150 mM K+ ions
How it was run: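 UV melting in 1 cm quartz cells. Sample held 5 μM strand of hTel DNA 24mer or AurA RNA 22mer, with ligand at 20 μM. Buffer 10 mM potassium phosphate pH 7.5 plus 132 mM KCl (150 mM K+ total). Nucleic acids preheated at 90 °C for 5 min and slowly cooled over 4 hr before use. AurA transition followed at 295 nm.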

[3] = system: Nucleic Acid; test: Thermal stabilization of […] poly(rA).poly(rU) duplex RNA assessed as change in transition temperature at 15 uM after 4 hrs by temperature-dependent spectrophotometry in presence of 150 mM K+ ions

- deltaT [1]: 0 °C
- deltaT [2]: 19.5 °C
- deltaT [3]: 0 °C
SMILES: CC(C)[C@@H]1NC(=O)c2coc(n2)-c2coc(n2)-c2coc(n2)[C@H](C(C)C)NC(=O)c2coc(n2)-c2coc(n2)-c2coc1n2 [HEXAOXAZOLE DIVALINE]
